# In patent US5962434A, “Compounds for stimulating nerve growth” (The Johns Hopkins University School of Medicine, priority 1996, dated 1999):
# Molecular target: T1, myelin-associated glycoprotein (MAG) (Rattus norvegicus, UniProt P07722)
# T1 sequence (P07722 20-626): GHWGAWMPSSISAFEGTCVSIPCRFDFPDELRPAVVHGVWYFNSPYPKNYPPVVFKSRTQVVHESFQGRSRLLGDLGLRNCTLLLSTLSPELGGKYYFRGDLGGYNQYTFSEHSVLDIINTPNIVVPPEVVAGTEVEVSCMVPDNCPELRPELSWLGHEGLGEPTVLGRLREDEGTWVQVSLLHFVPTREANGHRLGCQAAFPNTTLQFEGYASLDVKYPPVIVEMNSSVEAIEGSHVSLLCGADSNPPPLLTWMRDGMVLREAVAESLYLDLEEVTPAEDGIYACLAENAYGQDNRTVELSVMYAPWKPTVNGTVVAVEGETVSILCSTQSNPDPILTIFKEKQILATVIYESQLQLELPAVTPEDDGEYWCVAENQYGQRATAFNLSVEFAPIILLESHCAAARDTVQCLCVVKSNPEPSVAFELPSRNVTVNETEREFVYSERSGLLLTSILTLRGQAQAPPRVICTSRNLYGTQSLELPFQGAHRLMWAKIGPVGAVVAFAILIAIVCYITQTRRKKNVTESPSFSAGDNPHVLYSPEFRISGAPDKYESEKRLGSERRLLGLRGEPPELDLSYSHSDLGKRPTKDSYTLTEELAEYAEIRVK
# Experiment: Adherence of MAG-transfected COS cells to microwell surfaces on which gangliosides/glycolipids were adsorbed (LDH activity)
# Conditions: structure-function comparison, FIGS. 1C and 2
substance,measurement,value
"NeuAc α2,3 Gal β1,3(NeuAc α2,6) GalNAc β1,4(NeuAc α2,8 NeuAc α2,3)Gal β1,4Glc β1,1'Ceramide [GQ1bα]",support of MAG-mediated cell adhesion,enhanced support of MAG-transfected COS cell adhesion
